Experimental data from paper PMC11470957, “Principles of paralog-specific targeted protein degradation engaging the C-degron E3 KLHDC2” (Nature Communications, 2024).

Amino acid sequences for entries named in this document (tags omitted). Residues count along the entry.
UniProt Q9Y2U9, 15-361 limits assumed: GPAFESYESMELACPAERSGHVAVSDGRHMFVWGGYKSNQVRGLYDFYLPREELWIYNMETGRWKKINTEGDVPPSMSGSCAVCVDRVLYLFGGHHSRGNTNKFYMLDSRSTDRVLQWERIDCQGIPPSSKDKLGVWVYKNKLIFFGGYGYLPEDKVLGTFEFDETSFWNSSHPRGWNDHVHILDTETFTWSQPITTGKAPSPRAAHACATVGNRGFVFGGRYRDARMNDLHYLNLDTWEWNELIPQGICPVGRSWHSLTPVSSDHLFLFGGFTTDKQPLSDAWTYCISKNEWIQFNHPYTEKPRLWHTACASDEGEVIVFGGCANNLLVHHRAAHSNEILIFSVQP

Experiments:
KLHDC2^SBD [1] = biological target: T1, KLHDC2^SBD (Homo sapiens, UniProt Q9Y2U9); assay: Thermal shift assay (Sypro Orange) probing stabilization of KLHDC2^SBD; assay type: binding; details: for ΔTm at 50 µM: 50 µM compound
KLHDC2^SBD [2] = biological target: T1, KLHDC2^SBD; assay: TR-FRET assay, competition with di-Gly degron peptide binding to KLHDC2^SBD; details: read-out: TR-FRET IC50; inhibition of KLHDC2^SBD binding to a di-Gly degron peptide
KLHDC2^SBD [3] = biological target: T1, KLHDC2^SBD; assay: Surface plasmon resonance binding to KLHDC2; details: read-out: SPR Kd

SMILES | Thermal shift ΔTm (KLHDC2^SBD [1]; KLHDC2^SBD, ligand concentration not given, tested form: HCl) | ΔTm at 50 µM (KLHDC2^SBD [1]) | IC50 (KLHDC2^SBD [2]) | Kd (KLHDC2^SBD [3]) | ΔTm at 50 µM (KLHDC2^SBD [1]; tested form: DIPEA salt) | Kd (KLHDC2^SBD [3]; tested form: DIPEA salt)
O=C(O)CNC(=O)Cc1csc(-c2ccc3cccc(OCCN4CCNCC4)c3c2)n1 | 4.8 ± 0.08 °C | – | – | – | – | –
COCCOc1ccc(-c2nc(CC(=O)NCC(=O)O)cs2)c(Cl)c1 | – | 3.9 ± 0.4 °C | 23.8 µM | 9.15 µM | – | –
COc1ccn(-c2nc(CC(=O)NCC(=O)O)cs2)c(=O)c1 | – | – | 57.6 µM | 13.5 µM | – | –
COCOc1ccc(-c2nc(CC(=O)NCC(=O)O)cs2)cc1 | – | 2.2 ± 0.2 °C | 75.3 µM | 30 µM | – | –
COCOc1ccc(-c2nc(CC(=O)NCS(=O)(=O)O)cs2)c(Cl)c1 | – | – | – | – | 0.3 ± 0.05 °C | > 2000 µM
COc1ccc(-n2ccn(CC(=O)NCC(=O)O)c2=O)c(Cl)c1 | – | – | – | 181 µM | – | –
COCOc1ccc(-c2nc(CC(=O)NCC(=O)O)cs2)cc1C | – | 2.6 ± 0.4 °C | 27.6 µM | 21.7 µM | – | –

Where two headings read alike, the source gives them in different places.
